Cyclic peptide permeability, from CycPeptMPDB

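Lipid, pH, incubation time, direction and concentration are not recorded in the data file. Other peptides of the study may be missing here. Entries at the database's floor value (log10 P of -10) are not listed.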

PAMPA measures passive passage through an artificial lipid membrane.
Permeability is in 10^-6 cm/s, converted from the database's log10 values; higher is more permeable.

structure (SMILES)	PAMPA (10^-6 cm/s)
CCCC[C@@H]1NC(=O)[C@@H](CC(C)C)NC(=O)CN(CC2CCCCC2)C(=O)[C@H](C)NC(=O)CN(CCCOC(C)C)C(=O)[C@H]2CCCN2C1=O	9.5
CCCC[C@@H]1NC(=O)[C@H](CC(C)C)NC(=O)CN(CC2CCOCC2)C(=O)[C@@H](C)NC(=O)CN(Cc2ccc3c(c2)OCO3)C(=O)[C@H]2CCCN2C1=O	0.059
CCCC[C@@H]1NC(=O)[C@@H](CC(C)C)NC(=O)CN(CC2CCCCC2)C(=O)[C@@H](Cc2ccccc2)NC(=O)CN(CC)C(=O)[C@H]2CCCN2C1=O	9.3
CCCC[C@@H]1NC(=O)[C@H](CC(C)C)N(C)C(=O)CN(CC2CCOCC2)C(=O)[C@@H](C)NC(=O)CN(Cc2ccc3c(c2)OCO3)C(=O)[C@H]2CCCN2C1=O	0.22
CCCCCN1CC(=O)N(C)[C@H](CC(C)C)C(=O)N[C@@H](CCCC)C(=O)N2CCC[C@@H]2C(=O)N(Cc2ccc3c(c2)OCO3)CC(=O)N[C@H](C)C1=O	7.9
CCCCCN1CC(=O)N(C)[C@H](CC(C)C)C(=O)N[C@@H](CCCC)C(=O)N2CCC[C@H]2C(=O)N(CCCOC(C)C)CC(=O)N[C@H](C)C1=O	1.9
CCCC[C@@H]1NC(=O)[C@H](CC(C)C)N(C)C(=O)CN(CC2CCCCC2)C(=O)[C@H](C)NC(=O)CN(CC)C(=O)[C@H]2CCCN2C1=O	9.1
CCCCCN1CC(=O)N[C@@H](CC(C)C)C(=O)N[C@@H](CCCC)C(=O)N2CCC[C@@H]2C(=O)N(CC)CC(=O)N[C@@H](C)C1=O	0.3
CCCC[C@@H]1NC(=O)[C@H](CC(C)C)N(C)C(=O)CN(CC2CCOCC2)C(=O)[C@@H](Cc2ccccc2)NC(=O)CN(CCCOC(C)C)C(=O)[C@@H]2CCCN2C1=O	0.54
CCCC[C@@H]1NC(=O)[C@@H](CC(C)C)NC(=O)CN(CC2CCCCC2)C(=O)[C@@H](Cc2ccccc2)NC(=O)CN(CC)C(=O)[C@@H]2CCCN2C1=O	9.1
CCCC[C@@H]1NC(=O)[C@H](CC(C)C)N(C)C(=O)CN(CC2CCOCC2)C(=O)[C@H](C)NC(=O)CN(Cc2ccc3c(c2)OCO3)C(=O)[C@@H]2CCCN2C1=O	1.2
CCCC[C@@H]1NC(=O)[C@H](CC(C)C)N(C)C(=O)CN(CC2CCOCC2)C(=O)[C@@H](Cc2ccccc2)NC(=O)CN(Cc2ccc3c(c2)OCO3)C(=O)[C@H]2CCCN2C1=O	0.54
CCCC[C@@H]1NC(=O)[C@@H](CC(C)C)N(C)C(=O)CN(CC2CCOCC2)C(=O)[C@H](C)NC(=O)CN(CC)C(=O)[C@@H]2CCCN2C1=O	0.12
CCCC[C@@H]1NC(=O)[C@@H](CC(C)C)NC(=O)CN(CC2CCOCC2)C(=O)[C@@H](C)NC(=O)CN(Cc2ccc3c(c2)OCO3)C(=O)[C@H]2CCCN2C1=O	1.3
CCCC[C@@H]1NC(=O)[C@@H](CC(C)C)N(C)C(=O)CN(CC2CCOCC2)C(=O)[C@@H](Cc2ccccc2)NC(=O)CN(CC)C(=O)[C@H]2CCCN2C1=O	2
CCCC[C@@H]1NC(=O)[C@H](CC(C)C)NC(=O)CN(CC2CCCCC2)C(=O)[C@H](Cc2ccccc2)NC(=O)CN(CCCOC(C)C)C(=O)[C@H]2CCCN2C1=O	9.3
CCCCCN1CC(=O)N(C)[C@H](CC(C)C)C(=O)N[C@@H](CCCC)C(=O)N2CCC[C@H]2C(=O)N(CC)CC(=O)N[C@@H](C)C1=O	5
CCCC[C@@H]1NC(=O)[C@@H](CC(C)C)N(C)C(=O)CN(CC2CCCCC2)C(=O)[C@H](C)NC(=O)CN(CC)C(=O)[C@H]2CCCN2C1=O	12

Extract of 3 entries:

structure (SMILES)	PAMPA (10^-6 cm/s)
CCCCCN1CC(=O)N[C@@H](CC(C)C)C(=O)N[C@@H](CCCC)C(=O)N2CCC[C@@H]2C(=O)N(CC)CC(=O)N[C@@H](C)C1=O	0.3
CCCC[C@@H]1NC(=O)[C@@H](CC(C)C)N(C)C(=O)CN(CC2CCCCC2)C(=O)[C@H](C)NC(=O)CN(CC)C(=O)[C@H]2CCCN2C1=O	12
CCCC[C@@H]1NC(=O)[C@@H](CC(C)C)N(C)C(=O)CN(CC2CCOCC2)C(=O)[C@@H](Cc2ccccc2)NC(=O)CN(CC)C(=O)[C@H]2CCCN2C1=O	2

Values of Furukawa et al. 2016, doi:10.1021/acs.jmedchem.6b01246, as listed in CycPeptMPDB.